Literature values in patent US20250032449A1, “TREATMENT OF RHEUMATOID ARTHRITIS” (SYNACT PHARMA APS, priority 2021, published 2025).

Conditions: PCT/EP2022/066906; cited from earlier work

Substance: (E)-N-trans-{3-[1-(2-nitrophenyl)-1H-pyrrol-2-yl]-allylidene}-aminoguanidinium acetate [AP1189]
- Solubility at low pH: highly soluble at low pH

Substance: (E)-N-trans-{3-[1-(2-nitrophenyl)-1H-pyrrol-2-yl]-allylidene}-aminoguanidinium succinate [AP1189 succinate]
- Solubility at low pH: highly soluble at low pH
